## Measured affinities in a library of Ab-14 heavy chain variants

From the AlphaSeq antibody data of Li et al. 2023 (doi:10.1038/s41467-023-39022-2), copy in the FLAb collection.

The target is the same throughout: PDVDLGDISGINAS, from the HR2 region of SARS-CoV-2 spike.

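The starting antibody came from a phage panning campaign against this peptide. Designed CDR sequences, proposed from the first random library and measured here. Several design methods are mixed in this list. The scFvs were displayed on barcoded MATa yeast, the peptide on MATalpha yeast. After mating in shaken culture at 30 °C for 16 h, diploids were selected and their barcode pairs sequenced. A regression on co-assayed BCL2-family reference pairs converts the normalised counts of each replicate to an apparent Kd. Each pool was mated in six replicate cultures.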

Parent: Ab-14, a human scFv built as VH, three GGGGS repeats, VL. Only the CDRs of the heavy chain vary.
VH: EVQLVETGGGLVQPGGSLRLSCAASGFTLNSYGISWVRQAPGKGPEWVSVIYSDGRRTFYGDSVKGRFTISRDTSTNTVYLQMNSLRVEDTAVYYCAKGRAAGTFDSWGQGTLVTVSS
VL: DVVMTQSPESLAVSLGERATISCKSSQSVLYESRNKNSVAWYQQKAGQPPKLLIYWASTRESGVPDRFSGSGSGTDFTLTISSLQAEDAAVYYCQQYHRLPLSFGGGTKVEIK

The parent's heavy chain CDRs are GFTLNSYGIS, VIYSDGRRTFYGDSVK, GRAAGTFDS; each variant's own CDRs replace them letter for letter. Affinities are written as log10 Kd with Kd in nM; a lower number is a better binder. Replicates are averaged; those with no signal do not enter the mean. A pair that was not seen in any replicate is written "nd"; this usually means weak binding, but a binder can also be missed.

The variant GFDLNEYGIS | VIYADGMRTFYTDSVK | GEFAGTFDL gave 0.54 (6 of 6 replicates; controls 2 of 18).
The variant GFDLDEYGIS | VIYADGMRTFYTDSVK | GELAGTFDA gave 0.01 (6 of 6 replicates; controls 0 of 18).
The variant GFTLNDYGIS | VIYSDGRRTSYGDSVK | GRAAGTFDS gave 0.62 (5 of 6 replicates; controls 0 of 18).
The variant GFDLNEYGIS | VIYADGRRTFYADSVK | GQVAGTFSS gave -0.50 (6 of 6 replicates; controls 0 of 18).
The variant GFTLNEYGIS | VIYSDGRRTFYGDSVK | GRAAGTFLA gave nd (0 of 6 replicates; controls 0 of 18).
The variant HFELNSYGIS | VIYSDGRRTFYADSVK | GRVAGTFDS gave 0.51 (6 of 6 replicates; controls 0 of 18).
The variant GFTLNSYGIS | VIYSDGRRTSYNDSVK | GVAAGAFFS gave nd (0 of 6 replicates; controls 0 of 18).
The variant GFSLNSYGIS | VIYSDGRRTFYTDSVK | GLNAGTFDS gave 0.23 (6 of 6 replicates; controls 0 of 18).
The variant GFTLNSYGIS | VIYSDVRRTFYSDSVK | GRAGGTFDS gave nd (0 of 6 replicates; controls 0 of 18).
The variant GFDLNEYGIS | VIYADGVRTAYQDSVK | GNQAGTFDV gave 0.42 (6 of 6 replicates; controls 0 of 18).
The variant GYDIQDYGIS | VIYADGVRTVYHDSVK | GQLSGFFIT gave nd (0 of 6 replicates; controls 0 of 18).
The variant GFDLNEYGIS | VIYADGRRTFYADSVK | GEAAGTFFQ gave nd (0 of 6 replicates; controls 2 of 18).
The variant GQTLNSYGIS | VIYSDGRRTFYSDSVK | GRLAGTFDT gave 1.23 (6 of 6 replicates; controls 0 of 18).
The variant GFDLNEYGIS | VIYADGVRTAYSDSVK | GETAGTFDI gave -0.30 (6 of 6 replicates; controls 0 of 18).
The variant GFSLNMYGIS | VIYSDGRRTFYGDSVK | GQAAGTFDS gave 1.36 (6 of 6 replicates; controls 0 of 18).
The variant GFDLNEYGIS | VIYADGQRTAYADSVK | GNQAGTFDL gave -0.03 (6 of 6 replicates; controls 0 of 18).
The variant GFDLNEYGIS | VIYADGKRTFYVDSVK | GQVAGTFNV gave -0.52 (6 of 6 replicates; controls 0 of 18).
The variant GFALNSYGIS | VIYSDGRRTFYGDSVK | GRAAGTFDQ gave 3.01 (1 of 6 replicates; controls 0 of 18).
The variant GFDLNEYGIS | VIYADGVRTAYSDSVK | GSNAGTFDV gave -0.42 (6 of 6 replicates; controls 0 of 18).
The variant NFTLNSYGIS | VIYSDGRRTFYGDSVK | GRAAGTFDV gave nd (0 of 6 replicates; controls 0 of 18).
The variant GFDLNEYGIS | VIYADGRRTFYTDSVK | GANAGTFDN gave -0.35 (6 of 6 replicates; controls 2 of 18).
The variant GFDLNEYGIS | VIYADGKRTAYADSVK | GANAGTFDM gave -0.31 (6 of 6 replicates; controls 0 of 18).
The variant GFDLNEYGIS | VIYADGMRSYYADSVK | GNQAGTFDV gave -0.45 (6 of 6 replicates; controls 0 of 18).
The variant GFQLNSYGIS | VIYSDGRRTFYGDQVK | GKTAGTFDS gave 2.31 (4 of 6 replicates; controls 0 of 18).
The variant GFTLESYGIS | VIYSDGRRTFYGDSVK | GKTAGTFDS gave 0.55 (1 of 6 replicates; controls 0 of 18).
The variant GFDLNEYGIS | VIYADGKRTAYVDSVK | GNVAGTFDL gave -0.38 (6 of 6 replicates; controls 0 of 18).
The variant GSDLNEYGIS | VIYADGRRVSYAENVK | GINMAGIFI gave nd (0 of 6 replicates; controls 0 of 18).
The variant GFSLNSYGIS | VIYSDGRRTFYIDSVK | GHAAGTFDS gave 1.10 (3 of 6 replicates; controls 0 of 18).
The variant GFDLDEYGIS | VIYADGSRTAYADSVK | GNEAGTFDL gave -0.09 (1 of 6 replicates; controls 0 of 18).
The variant GFDLNEYGIS | VIYADGMRTAYIDSVK | GTNAGTFDV gave 1.07 (6 of 6 replicates; controls 0 of 18).
The variant GFSLNTYGIS | VIYSDGRRTFYGDSVK | GTAAGTFDS gave -0.01 (6 of 6 replicates; controls 0 of 18).
The variant GSSLDEYGIS | VIYADGQRVQYADTVK | GIQGGNVDV gave nd (0 of 6 replicates; controls 1 of 18).
The variant GFDFQEYGIS | VIYADGMRTNASDDVK | GNIGATFDD gave 2.73 (1 of 6 replicates; controls 1 of 18).
The variant GQTLNSYYIS | VIYSDGRRTFYDDSVK | GQLAGTFDS gave nd (0 of 6 replicates; controls 0 of 18).
The variant GFTLDSYGIS | VIYSDGRRTEYGDSVK | GRAAGTLLS gave nd (0 of 6 replicates; controls 0 of 18).
The variant GFDLNEYGIS | VIYADGVRTYYADSVK | GEVAGTFDI gave -0.54 (6 of 6 replicates; controls 0 of 18).
The variant GFSLDEYGIS | VIYADGLRSFYQDKVK | GELALSLDT gave 2.47 (1 of 6 replicates; controls 0 of 18).
The variant GFDIMEYGVS | VIYADGVRTAYSQDVK | GLNLDSYVD gave nd (0 of 6 replicates; controls 0 of 18).
The variant GFTLNQYGVS | VIYADGRRTFYGDSVK | GRAAGTFDS gave -0.14 (6 of 6 replicates; controls 0 of 18).
The variant GFDLDEYGIS | VIYADGSRTAYADSVK | GENAGTFDV gave -0.23 (6 of 6 replicates; controls 0 of 18).
The variant GFTLNDYGIS | VIYSDGYRTFYGDSVK | GRAAGTFDS gave 1.41 (4 of 6 replicates; controls 1 of 18).
The variant GFTLNSYGIS | VIYSDGRRTFYGDSVK | GRAAGWFDS gave 1.36 (4 of 24 replicates; controls 0 of 72).
The variant GFELNSYGIS | VIYSDGRRTFYGDSVK | GHVAGTFDT gave 0.33 (6 of 6 replicates; controls 0 of 18).
The variant GQLLDDYGIS | VIYADGLRKAYVDDVK | GNVAGTFDM gave -0.52 (6 of 6 replicates; controls 0 of 18).
The variant GFTLNSYGIS | VIYSDGRRTFYGDSVK | GTIAGTFDS gave 0.39 (6 of 6 replicates; controls 0 of 18).
The variant GTTLNSYGIS | VIYSDGRRTYYLDSVK | GAAAGTFDS gave 2.30 (3 of 6 replicates; controls 0 of 18).
The variant GEDLLEYGIS | VIYADGKRVAYTNAVK | GNEAGVFTL gave nd (0 of 6 replicates; controls 0 of 18).
The variant GFKLNSYGIS | VIYSDGRRTFYGDSVK | GKVAGTFDS gave 0.59 (5 of 6 replicates; controls 0 of 18).
The variant GFDLMEYGIS | VIYADGQRQYYANKFK | GEISASFLI gave 1.61 (1 of 6 replicates; controls 0 of 18).
The variant GFELNDYGIS | VIYSDGRRTFYGDSVK | GRAAGTFDI gave 0.61 (6 of 6 replicates; controls 0 of 18).

Picked from the list: the 7 lowest averages where every replicate gave a value.

| CDR-H1 | CDR-H2 | CDR-H3 | mean, log10 nM | seen in | control signals |
|---|---|---|---|---|---|
| GFDLNEYGIS | VIYADGVRTYYADSVK | GEVAGTFDI | -0.54 | 6 of 6 | 0 of 18 |
| GFDLNEYGIS | VIYADGKRTFYVDSVK | GQVAGTFNV | -0.52 | 6 of 6 | 0 of 18 |
| GQLLDDYGIS | VIYADGLRKAYVDDVK | GNVAGTFDM | -0.52 | 6 of 6 | 0 of 18 |
| GFDLNEYGIS | VIYADGRRTFYADSVK | GQVAGTFSS | -0.50 | 6 of 6 | 0 of 18 |
| GFDLNEYGIS | VIYADGMRSYYADSVK | GNQAGTFDV | -0.45 | 6 of 6 | 0 of 18 |
| GFDLNEYGIS | VIYADGVRTAYSDSVK | GSNAGTFDV | -0.42 | 6 of 6 | 0 of 18 |
| GFDLNEYGIS | VIYADGKRTAYVDSVK | GNVAGTFDL | -0.38 | 6 of 6 | 0 of 18 |

Three control strains display no target. For all heavy chain designs, 1% of the pairings with them gave a signal, with a median of 2.08 and one signal in twenty below 0.84, so weak values seen in few replicates may be background. Also given: how often the same scFv was detected with the empty control strains. In the paper, a design with two or fewer of six values counts as a poor binder. The range of this assay differs from that of the first round, and the authors advise against merging the two. A sequence that the file lists under several names has all its replicates pooled.